Permeability data for macrocyclic peptides

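The data file gives no further conditions (lipid, pH, time, direction or concentration), and values from different papers need not be comparable. Other peptides of the study may be missing here. Entries at the database's floor value (log10 P of -10) are not listed.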

PAMPA measures passive passage through an artificial lipid membrane.
Permeability is in 10^-6 cm/s, converted from the database's log10 values; higher is more permeable.

| SMILES | PAMPA (10^-6 cm/s) |
|---|---|
| CC[C@H]1NC(=O)[C@@H](NC(=O)[C@@H](CC(C)C)N(C)C(=O)[C@@H]2CCCN2C(C)=O)[C@@H](C)OC(=O)[C@@H]2CCCN2C(=O)[C@H](CC(C)C)NC(=O)[C@@H](C)N(C)C(=O)[C@@H](CC2CCCCC2)NC(=O)[C@H](CC(C)C)NC1=O | 0.66 |
| CC(=O)N1CCC[C@H]1C(=O)N[C@@H]1C(=O)N(C)[C@H](CC(C)C)C(=O)N[C@@H](CC(C)C)C(=O)N(C)[C@@H](CC(C)C)C(=O)N(C)[C@H](CC(C)C)C(=O)N(C)[C@H](C)C(=O)N[C@@H](CC(C)C)C(=O)N2CCC[C@@H]2C(=O)O[C@@H]1C | 1.3 |
| CC(=O)N1CCC[C@H]1C(=O)N(C)[C@H](CC(C)C)C(=O)N[C@@H]1C(=O)N[C@H](Cc2ccccc2)C(=O)N[C@@H](CC(C)C)C(=O)N[C@H](Cc2cccc3ccccc23)C(=O)N(C)[C@H](C)C(=O)N[C@@H](CC(C)C)C(=O)N2CCC[C@H]2C(=O)O[C@@H]1C | 1 |
| CCC[C@@H]1NC(=O)[C@@H](CCC)NC(=O)[C@@H](NC(=O)[C@@H](CC(C)C)N(C)C(=O)[C@@H]2CCCN2C(C)=O)[C@@H](C)OC(=O)[C@@H]2CCCN2C(=O)[C@H](CC(C)C)NC(=O)[C@@H](C)N(C)C(=O)[C@@H](Cc2cccc3ccccc23)NC1=O | 4.1 |
| CC(=O)N1CCC[C@H]1C(=O)N(C)[C@H](CC(C)C)C(=O)N[C@@H]1C(=O)N[C@H](Cc2ccc(F)c(F)c2)C(=O)N[C@@H](Cc2ccccc2)C(=O)N[C@H](Cc2ccc(F)c(F)c2)C(=O)N(C)[C@H](C)C(=O)N[C@@H](CC(C)C)C(=O)N2CCC[C@H]2C(=O)O[C@@H]1C | 0.74 |
| CC(=O)N1CCC[C@H]1C(=O)N(C)[C@H](CC(C)C)C(=O)N[C@@H]1C(=O)N[C@H](Cc2ccccc2)C(=O)N[C@@H](CC(C)C)C(=O)N[C@H](Cc2ccc(F)c(F)c2)C(=O)N(C)[C@H](C)C(=O)N[C@@H](CC(C)C)C(=O)N2CCC[C@H]2C(=O)O[C@@H]1C | 3.1 |
| CC(=O)N1CCC[C@H]1C(=O)N[C@@H]1C(=O)N(C)[C@H](CC(C)C)C(=O)N(C)[C@H](CC(C)C)C(=O)N[C@H](CC(C)C)C(=O)N[C@@H](CC(C)C)C(=O)N(C)[C@H](C)C(=O)N[C@@H](CC(C)C)C(=O)N2CCC[C@@H]2C(=O)O[C@@H]1C | 2.1 |
| CC[C@H]1NC(=O)[C@@H](NC(=O)[C@@H](CC(C)C)N(C)C(=O)[C@@H]2CCCN2C(C)=O)[C@@H](C)OC(=O)[C@@H]2CCCN2C(=O)[C@H](CC(C)C)NC(=O)[C@@H](C)N(C)C(=O)[C@@H](Cc2ccc(F)c(F)c2)NC(=O)[C@H](Cc2ccc(OC)cc2)NC1=O | 1.8 |
| CC(=O)N[C@@H]1C(=O)N2CCC[C@H]2C(=O)N(C)[C@H](CC(C)C)C(=O)N(C)[C@@H](CC(C)C)C(=O)N[C@@H](CC(C)C)C(=O)N[C@H](CC(C)C)C(=O)N[C@H](C)C(=O)N[C@@H](CC(C)C)C(=O)N2CCC[C@@H]2C(=O)O[C@@H]1C | 0.39 |
| CC(=O)N[C@@H]1C(=O)N2CCC[C@H]2C(=O)N(C)[C@H](CC(C)C)C(=O)N[C@H](CC(C)C)C(=O)N(C)[C@H](CC(C)C)C(=O)N[C@H](CC(C)C)C(=O)N(C)[C@H](C)C(=O)N[C@@H](CC(C)C)C(=O)N2CCC[C@@H]2C(=O)O[C@@H]1C | 2.5 |
| CC(=O)N[C@@H]1C(=O)N2CCC[C@H]2C(=O)N(C)[C@H](CC(C)C)C(=O)N(C)[C@H](CC(C)C)C(=O)N[C@H](CC(C)C)C(=O)N[C@H](CC(C)C)C(=O)N(C)[C@H](C)C(=O)N[C@@H](CC(C)C)C(=O)N2CCC[C@@H]2C(=O)O[C@@H]1C | 0.19 |
| COc1ccc(C[C@@H]2NC(=O)[C@@H](CC3CCCCC3)NC(=O)[C@@H](NC(=O)[C@@H](CC(C)C)N(C)C(=O)[C@@H]3CCCN3C(C)=O)[C@@H](C)OC(=O)[C@@H]3CCCN3C(=O)[C@H](CC(C)C)NC(=O)[C@@H](C)N(C)C(=O)[C@@H](Cc3ccccc3)NC2=O)cc1 | 0.32 |

A selection of 2 entries from above:

| SMILES | PAMPA (10^-6 cm/s) |
|---|---|
| CC(=O)N[C@@H]1C(=O)N2CCC[C@H]2C(=O)N(C)[C@H](CC(C)C)C(=O)N(C)[C@H](CC(C)C)C(=O)N[C@H](CC(C)C)C(=O)N[C@H](CC(C)C)C(=O)N(C)[C@H](C)C(=O)N[C@@H](CC(C)C)C(=O)N2CCC[C@@H]2C(=O)O[C@@H]1C | 0.19 |
| COc1ccc(C[C@@H]2NC(=O)[C@@H](CC3CCCCC3)NC(=O)[C@@H](NC(=O)[C@@H](CC(C)C)N(C)C(=O)[C@@H]3CCCN3C(C)=O)[C@@H](C)OC(=O)[C@@H]3CCCN3C(=O)[C@H](CC(C)C)NC(=O)[C@@H](C)N(C)C(=O)[C@@H](Cc3ccccc3)NC2=O)cc1 | 0.32 |

Collected by the curators of CycPeptMPDB (Li et al. 2023) from Kelly et al. 2021, doi:10.1021/jacs.0c06115.